{"sequences": {"note": "Amino acid sequences for entries named in this document (tags omitted). Residues count along the entry.", "UniProt P23219, 24-599": "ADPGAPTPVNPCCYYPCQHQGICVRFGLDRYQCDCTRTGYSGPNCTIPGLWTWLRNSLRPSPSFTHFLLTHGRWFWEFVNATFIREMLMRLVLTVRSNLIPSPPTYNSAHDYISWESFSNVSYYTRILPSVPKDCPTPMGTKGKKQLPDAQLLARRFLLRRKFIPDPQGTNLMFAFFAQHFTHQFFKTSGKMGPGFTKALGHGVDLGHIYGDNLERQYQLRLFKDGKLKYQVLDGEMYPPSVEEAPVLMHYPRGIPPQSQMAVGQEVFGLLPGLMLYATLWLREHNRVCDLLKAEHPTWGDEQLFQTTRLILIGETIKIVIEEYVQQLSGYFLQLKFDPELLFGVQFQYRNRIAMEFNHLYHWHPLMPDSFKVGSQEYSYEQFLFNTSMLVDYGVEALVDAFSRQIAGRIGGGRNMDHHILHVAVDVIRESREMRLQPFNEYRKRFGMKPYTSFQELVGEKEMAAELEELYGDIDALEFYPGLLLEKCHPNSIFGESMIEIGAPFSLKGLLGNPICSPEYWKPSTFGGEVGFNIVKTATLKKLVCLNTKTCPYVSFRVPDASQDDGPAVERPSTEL"}, "source": "patent US8986652B2", "about": "“Method of preparing [123I]iodooctyl fenbufen amide and application thereof” (National Tsing Hua University, priority 2012, dated 2015)", "origin": "cited, not measured here", "target": "COX-1 (Homo sapiens, UniProt P23219)", "settings": "read-out: IC50 value COX-1, lit. data; cited from earlier work", "data": [{"molecule": "Oc1ccc(C=Cc2cc(O)cc(O)c2)cc1", "note": "[Resveratrol]", "values": [{"measurement": "IC50", "value": 1560, "unit": "nM"}]}]}
